This data set in a line: API degradation in presence of excipients on storage. Particulars: 4 weeks at 40° C./75% RH; PEG1500, PEG6000, Gelucire 44/14, Poloxamer 124, kolliphor RH40, Kolliphor EL, Polysorbate 20/80, Miglyol 812N.

On to `CNC1(c2ccccc2Cl)CCCCC1=O` (stereo not shown) [Ketamine, ketamine], for which the “Stability of API in presence of selected excipients” value was “Degradation”.

(Values after patent publication US20230301939A1, “NOVEL FO[…]” (Neurocentrx Pharma Ltd., priority 2018, published 2023).)
